# Yeast mating assay 1: variants of the scFv Ab-14

Reference: Engelhart et al. 2022, doi:10.1038/s41597-022-01779-4. File: FLAb, binding data.

Target peptide (SARS-CoV-2 spike, HR2 region): PDVDLGDISGINAS

Ab-14 is the parent antibody, in scFv form: VH, then a (GGGGS)3 linker, then VL. The heavy chain is unchanged in all variants.
VH: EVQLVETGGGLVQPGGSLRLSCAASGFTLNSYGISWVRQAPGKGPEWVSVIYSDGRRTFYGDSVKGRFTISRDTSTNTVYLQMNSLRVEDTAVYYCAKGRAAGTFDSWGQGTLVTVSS
VL: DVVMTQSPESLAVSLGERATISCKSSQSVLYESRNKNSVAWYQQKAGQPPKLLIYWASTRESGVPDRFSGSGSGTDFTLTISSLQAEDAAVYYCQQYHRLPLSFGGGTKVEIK

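Phage display of a naive human antibody library on the peptide gave the parent. AAYL50 was designed without a model: most single CDR substitutions and a random sample of double and triple ones. The assay is AlphaSeq: two haploid yeast populations carry antibody and antigen on their surface. After mating in shaken culture at 30 °C for 16 h, diploids were selected and their barcode pairs sequenced. Scores were corrected for input abundance and mapped to Kd with protein pairs of known affinity run in the same pool. There are three technical replicates.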

The parent's light chain CDRs are KSSQSVLYESRNKNSVA, WASTRES, QQYHRLPLS; each variant's own CDRs replace them letter for letter.
Scale: log10 of Kd in nM, estimated from mating counts; low values are strong binders.
"nd" means that the variant was in the library but no mating with the target was seen in that replicate; the authors take this as a sign of poor binding, and no number exists.
Empty control strains, which show no peptide, gave a signal in 18% of pairings with library AAYL50; the median was 4.19 and 95% of these signals were weaker than 2.99. No background was subtracted. The control count says in how many pairings with the empty strains this scFv gave a signal, with their mean in brackets.

| # | CDR-L1 | CDR-L2 | CDR-L3 | replicates, log10 nM | control signals |
|---|---|---|---|---|---|
| 1 | GSSQSVLYEARNKNSVC | WASTRES | QQYHRLPLS | 4.70 nd nd | 2 of 9 (4.66) |
| 2 | KSSQHQLYESRNKNSVA | WASTRES | QQYHRLPLS | 1.11 1.15 1.45 | 2 of 9 (4.58) |
| 3 | KSSQSVLYESRNKNSVA | WASTRES | VQYSRLPLA | nd nd nd | 0 of 9 |
| 4 | KSSPSVLYESRSKNSVA | WASTRES | QQQHRLPLS | 1.42 1.47 1.56 | 1 of 9 (4.60) |
| 5 | KSSQSVLYESRNKNSVA | EASTRES | QQYHELALS | 0.75 0.99 0.79 | 2 of 9 (4.02) |
| 6 | KSSQSVLYERRNYNSVA | WHSTRES | QQYHRLPLS | nd nd nd | 0 of 9 |
| 7 | KSSQSVLYESCNKNSVA | WASTSEF | QQYHRLPLS | nd nd nd | 0 of 9 |
| 8 | KSSQSVYYESRNKNSVA | WASTIES | QQYHRMPLS | 2.99 2.57 2.79 | 1 of 9 (3.07) |
| 9 | KSSQSVLYESRNKDSVA | WASTRES | QEYHRLPLS | 3.16 2.79 3.46 | 0 of 9 |
| 10 | KSSQSVLYEKRNKNSYA | WASTRES | QQYHRLPVS | nd nd nd | 0 of 9 |
| 11 | KSSQSVLYESRNKNSVN | WASTRES | QQIWRLPLS | nd nd nd | 1 of 9 (3.22) |
| 12 | KSSQSVLYESRNKNSVA | KASIRES | QQYIRLPLS | -0.26 0.27 -0.09 | 3 of 9 (4.97) |
| 13 | KSSQSVVYESRNLNSVA | WASTRES | QQYPRLPLS | nd nd 4.32 | 1 of 9 (3.46) |
| 14 | KSSRSVLYESRNKNSVA | WASCREG | QQYHRLPLS | 2.48 2.17 2.27 | 0 of 9 |
| 15 | KSSQSVLYESRNKNSVA | WASTNEV | QQYHRLPYS | 1.78 1.62 2.19 | 0 of 9 |
| 16 | KSSQSLLYESRNKNSVA | WASTRES | CQYERLPLS | nd 3.77 3.10 | 2 of 9 (3.41) |
| 17 | KSSQSVQYFSRNKNSVA | WASTRES | EQYHRLPLS | 2.51 3.21 2.95 | 2 of 9 (3.69) |
| 18 | KSSQSRLYESRNKKSVA | WASTRES | QQYHRLPLS | 0.63 1.06 1.64 | 2 of 9 (4.06) |
| 19 | KSSQSVLYESRNHNSVW | WASTRES | QQYHRLPLQ | 3.63 nd nd | 3 of 9 (5.03) |
| 20 | NSSQNVLYESRNKNSVA | WASTRES | QQYHDLPLS | 3.28 3.13 nd | 4 of 9 (4.81) |
| 21 | KSSQSVLYESRNNNSVA | WASTQES | QTYHRLPLS | 4.19 nd nd | 0 of 9 |
| 22 | KSSQSVLYESGNKNSVA | WASTRES | QQYRRLPLH | 2.11 2.43 1.46 | 0 of 9 |
| 23 | KSSQSVLYDFRNKNSVV | WASTRES | QQYHRLPLS | nd nd nd | 0 of 9 |
| 24 | KSSQSVLNESRNKNSVA | WASTREH | QQYHRNPLS | nd nd nd | 1 of 9 (5.15) |
| 25 | KSSQSVLYESRNKWSTA | WASTRES | YQYHRLPLS | nd 3.34 nd | 1 of 9 (4.05) |
| 26 | KSSQSVLYESREFNSVA | WASTRES | QQYHRLWLS | 0.64 0.95 1.15 | 0 of 9 |
| 27 | KSSQSVRYESRNKNDVA | WASTRES | QQYHRLPQS | nd nd nd | 0 of 9 |
| 28 | KSSSSVLYESFNKNSVA | WASTRES | QQKHRLPLS | 0.01 0.76 0.55 | 0 of 9 |
| 29 | KSSQSVLYESRNSNSVA | WAWTRES | QQYHRLCLS | nd nd 3.43 | 2 of 9 (3.65) |
| 30 | KSSQSVLYESRNKTSVI | WASTRES | QQYHMLPLS | nd nd nd | 0 of 9 |
| 31 | KSSQPVLYESRNKNNVA | WASTRES | QQVHRLPLS | 2.48 2.39 2.65 | 1 of 9 (4.32) |
| 32 | KSSFSVLYESRNKNSVQ | WASTRES | QQYHRLPLP | nd nd nd | 0 of 9 |
| 33 | SSSQSTLYESRNKNSVA | WATTRES | QQYHRLPLS | 1.15 1.26 1.27 | 4 of 9 (5.10) |
| 34 | HSSQSVLYESRNKNSVA | WASTREL | QQYHILPLS | 1.54 1.41 1.61 | 0 of 9 |
| 35 | KIRQSVLYESRNKNSVA | WGSTRES | QQYHRLPLS | 0.26 0.53 0.37 | 3 of 9 (4.54) |
| 36 | KSSQSVLYESRNKNSVA | WASTKES | QVSHRLPLS | nd nd nd | 0 of 9 |
| 37 | KSSQSVLYESRNKNMVA | WASTAES | QQYHRAPLS | nd nd nd | 2 of 9 (3.33) |
| 38 | KSSQSVLYESRNKNLVA | WASTRES | QQYHRHPLS | nd 3.51 nd | 3 of 9 (4.46) |
| 39 | KSSQSHLYESRNKNSHA | WASTYES | QQYHRLPLS | nd nd nd | 2 of 9 (4.28) |
| 40 | KSSQSVLYESRNCASVA | WASTRES | QQWHRLPLS | 4.02 2.98 3.68 | 3 of 9 (4.21) |
| 41 | KSSQSVLYESRNKNSVK | WAETRES | QQYHRLKLS | nd nd 5.14 | 1 of 9 (4.22) |
| 42 | KSSQSVLMESRLKNSTA | WASTRES | QQYHRLPLS | 6.98 5.21 5.40 | 5 of 9 (5.22) |
| 43 | KSSQSPLYESRNKNSVA | WASTRES | QQYHIWPLS | nd nd nd | 0 of 9 |
| 44 | KSSQSVLYESRNKNSAA | WASTRTS | QQYHRLPLD | nd nd nd | 0 of 9 |
| 45 | KLRQSTLYESRNKNSVA | WASTRES | QQYHRLPLS | -0.95 -0.54 -0.72 | 2 of 9 (2.89) |
| 46 | KSSQSVLYEVRNKCSVA | WASTRES | QQYHSLPLS | 1.18 1.41 1.43 | 1 of 9 (5.80) |

A selection of 8 entries from above:

{"CDR-L1": "SSSQSTLYESRNKNSVA", "CDR-L2": "WATTRES", "CDR-L3": "QQYHRLPLS", "replicates, log10 nM": "1.15 1.26 1.27", "control signals": "4 of 9 (5.10)"}
{"CDR-L1": "KSSQPVLYESRNKNNVA", "CDR-L2": "WASTRES", "CDR-L3": "QQVHRLPLS", "replicates, log10 nM": "2.48 2.39 2.65", "control signals": "1 of 9 (4.32)"}
{"CDR-L1": "KSSQSVLYEKRNKNSYA", "CDR-L2": "WASTRES", "CDR-L3": "QQYHRLPVS", "replicates, log10 nM": "nd nd nd", "control signals": "0 of 9"}
{"CDR-L1": "KSSQSVLYESRNCASVA", "CDR-L2": "WASTRES", "CDR-L3": "QQWHRLPLS", "replicates, log10 nM": "4.02 2.98 3.68", "control signals": "3 of 9 (4.21)"}
{"CDR-L1": "HSSQSVLYESRNKNSVA", "CDR-L2": "WASTREL", "CDR-L3": "QQYHILPLS", "replicates, log10 nM": "1.54 1.41 1.61", "control signals": "0 of 9"}
{"CDR-L1": "KSSQSVLMESRLKNSTA", "CDR-L2": "WASTRES", "CDR-L3": "QQYHRLPLS", "replicates, log10 nM": "6.98 5.21 5.40", "control signals": "5 of 9 (5.22)"}
{"CDR-L1": "KSSQSVLYESRNKNSVN", "CDR-L2": "WASTRES", "CDR-L3": "QQIWRLPLS", "replicates, log10 nM": "nd nd nd", "control signals": "1 of 9 (3.22)"}
{"CDR-L1": "KLRQSTLYESRNKNSVA", "CDR-L2": "WASTRES", "CDR-L3": "QQYHRLPLS", "replicates, log10 nM": "-0.95 -0.54 -0.72", "control signals": "2 of 9 (2.89)"}